# Reference: patent publication US8008290B2, “Compounds” (priority 2009, dated 2011)
# Target: T1, Human recombinant cathepsin K (Homo sapiens, UniProt P43235)
# T1 sequence (P43235 115-329): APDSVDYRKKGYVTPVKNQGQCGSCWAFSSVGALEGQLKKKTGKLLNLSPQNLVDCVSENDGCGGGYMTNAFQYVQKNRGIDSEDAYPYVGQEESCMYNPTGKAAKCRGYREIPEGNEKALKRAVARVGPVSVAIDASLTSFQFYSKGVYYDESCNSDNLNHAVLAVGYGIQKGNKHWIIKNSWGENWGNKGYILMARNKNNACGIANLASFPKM
# Experiment: In vitro cathepsin Ki inhibition measurement, cathepsin K
# Assay type: biochemical
# Conditions: relative to prior art compound (38)
# Experimental: Stock solutions of substrate or inhibitor were made up to 10 mM in 100% dimethylsulfoxide (DMSO) (Rathburns, Glasgow, U.K.) and diluted as appropriately required. In all cases the DMSO concentration in the assays was maintained at less than 1% (vol./vol.). The equilibrium inhibition constants (Ki^ss) for each compound were measured under steady-state conditions monitoring enzyme activity as a function of inhibitor concentration. […] B. […] The apparent inhibition constant (Ki) for each compound was determined on the basis that inhibition was reversible and occurred by a pure-competitive mechanism. […] F. Trends Biochem. […] Morrison, J. F. Biochim. Biophys. […] Curves were fitted by non-linear regression analysis (Prism) using a fixed value for the enzyme concentration.
compound,measurement,value
O=C(N[C@H](C(=O)N1CC[C@H]2OCC(=O)[C@H]21)C1CCCCC1)c1ccccc1 [Compound 1],fold improvement in in vitro potency against human cathepsin K,greater than 13 fold
